Test results taken from patent EP4701641B1, “5-AMINO-2,3-DIHYDRO-1,4-PHTHAL[…] THE PROPHYLAXIS AND TREATMENT OF […]” (MetrioPharm AG, priority 2023, dated 2025).

Test system: Coronary artery smooth muscle cells
Details: SRB assay for 24 hours; data not shown
Experimental: Coronary artery smooth muscle cells pooled from human donors (n = 3) were commercially acquired and cultured according to the recommendations of the manufacturer. They were stimulated with IL-1β, TNF-α and IFN-γ to emulate conditions of vascular inflammation. The […] were cultured in 96 well-plates until confluence. Details are described in Kunkel et al. (2004) FASEB J 18: 1279-1281). […] The substance was added at the indicated concentration 1 hour before stimulation and remained in culture for 48 hours. Each plate contained positive and negative controls (non-stimulated cells) as well as vehicle controls (buffer solution). Direct ELISA (enzyme-linked immunosorbent assay) was used to measure thrombomodulin levels. Soluble factors from supernatants were quantified using capture ELISA.

**Q.** With `Nc1cccc2c(=O)[nH][nH]c(=O)c12.[Na]` [5-amino-2,3-dihydro-1,4-phthalazinedione sodium salt] as the compound, how does the overt cytotoxic effects read?
**A.** no cytotoxic effects were observed
